Source: PubChem BioAssay (Broad Institute)
Only some compounds are listed: those with a hit (about 2.8% of all), similar ones and a draw of the others.
PGC1a acetyl inh = inhibitors of PGC1a acetylation signal, primary screen, cell-based, U2OS, AlphaScreen, inhibitor mode. AlphaScreen anti-acetyl-lysine; with virally co-expressed GCN5 acetyltransferase. inhibition, % at 15.6 µM. hit rate 0.17% among 350,000. AID 651687, 2012;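 active means every replicate shows inhibition of at least 40%; inconclusive means mean inhibition at least 40% but some replicate below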
UUG fidelity = alters start codon recognition fidelity in yeast. S. cerevisiae UUG-firefly luciferase reporter, luminescence/redox ratio. AID 602363. activity score, % at 18.7 µM. hit rate 0.13% among 350,000;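 active = replicate mean at a twofold rise or more, about +100% in these data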;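 note: firefly luciferase made from a UUG start codon reports start codon fidelity; reporter light over untreated wells divided by growth signal over untreated wells; some hits fall short of that in this replicate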
esBAF inh = Bmi1 luciferase reporter increase in mESCs, primary screen, esBAF inhibitor project, mouse ES cells, Bmi1 luciferase knock-in, single point. 24 h; 100% = twice the neutral-well signal. reporter increase, % at 12.5 µM. hit rate 2% among 350,000; in the data active means activation above about 40%; inconclusive means no clear call, values can overlap the other calls;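 further: a rise in the Bmi1 reporter signal indicates esBAF inhibition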
E-selectin induc = E-selectin induction in HUVECs, primary screen, imaging, HUVEC, immunofluorescence imaging, single point. P16581. AID 686992, 2013. activation, % at 7.58 µM. hit rate 0.37% among 260,000. normalized: neutral wells 0, TNF-alpha wells 100;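 active means mean E-selectin-positive cell signal at least 10% of the positive control, reached in at least 60% of replicates, without over 20% cell loss; inconclusive means no rule given, readout overlaps actives, possibly toxicity-flagged; inactive means the rest, including those meeting only one limit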
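Assay system: HUVEC primary endothelial cells. Input: 3,000 HUVEC seeded per well. Doses: one compound dose added by pin transfer. Read-out basis: % PE-positive cells. Benchmarks: TNF-alpha high, DMSO low. Detection: immunofluorescence imaging. Buffer or medium: EGM-2, gelatin.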
C2C12 statin = suppressors of statin myotoxicity in C2C12 myotubes, primary screen, cell-based, single point, plate reader | rescue of ATP level, % at 7.49 µM | C2C12 myotubes + simvastatin, ATP luminescence, 48 h; scaled: DMSO 0, geranylgeraniol control 100 | AID 602340, 2012 | hit rate 0.78% among 330,000;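 active means mean ATP rescue above about 67%, or every replicate alone reaching that limit, limit read from the data, passing the limit was not always enough; inconclusive means no clear call, values can overlap the other calls; inactive means mean under the limit and some replicate under it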;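 further: myotubes were challenged with 10 µM simvastatin during compound exposure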
PglD inh = C. jejuni PglD acetyltransferase inhibitors, primary screen, biochemical, DTNB colorimetric, single point. UDP-N-acetylbacillosamine N-acetyltransferase PglD (Campylobacter jejuni). hit rate 0.098% among 360,000. purified PglD enzyme, DTNB colorimetric CoA detection. inhibition, % at 12.5 µM. AID 602405, 2012; in the data active means inhibition above about 16%, passing the limit was not always enough; inconclusive means no clear call, values can overlap the other calls
esBAF Ring1 qPCR = Ring1 mRNA increase in mouse ESCs, confirmation, esBAF inhibitor project, cell-based, mouse ESC, RT-qPCR, cherry-pick; shares compounds with esBAF inh; mouse ESC E14, Ring1 mRNA RT-qPCR fold change; fold change at 33 µM; 550 tested, under 10 active;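 active means Ring1 gene expression raised more than 2-fold over untreated cells in both replicates at either tested dose; inconclusive means only one replicate above 2-fold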;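 further: Ring1 transcript normalised to actin housekeeping signal by TaqMan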
Fgf4 repress = Fgf4 mRNA decrease in mouse ESCs, confirmation, esBAF inhibitor project, cell-based, mouse ESC, RT-qPCR, cherry-pick; shares compounds with esBAF inh; mouse ESC E14, Fgf4 mRNA qPCR fold change; hits give low values; Fgf4 expression fold change at 33 µM; hit rate 4% among 550;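 active means Fgf4 expression under 0.8 fold of control in both repeat measurements at one or both tested doses; inconclusive means under 0.8 fold in just a single repeat measurement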;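 further: Fgf4 transcript normalised to actin in duplex TaqMan qPCR; cells exposed to compound for 24 h before lysis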
Bmi1 derepress = esBAF inhibition via Bmi1 de-repression, confirmation, cell-based, RT-qPCR, mouse ESC, single point, cherry-pick; shares compounds with esBAF inh; mouse ESE14 ES cells, Bmi1 mRNA qPCR fold; hits give high values; fold change at 33 µM; 550 tested, under 10 active;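 active means Bmi1 expression fold change above 6 at either tested concentration, seen in replicate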;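 further: higher fold means more Bmi1 de-repression and stronger esBAF inhibition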
A549 tox SP = A549 cell cytotoxicity, cytotoxicity control, plate reader, single point, cherry-pick | shares compounds with esBAF inh | cell viability change % (negative = cytotoxic), % at 25 µM, hits read low | 550 tested, under 10 active; call rule not given here
HepG2 cytotox SP = HepG2 cell cytotoxicity, cytotoxicity control, plate reader, single point, cherry-pick; hits give low values; activity change, negative = inhibition, % at 25 µM; shares compounds with esBAF inh; hit rate 4% among 550; in the data active means activity change below about -50%
HEK293 tox SP = HEK293 cell cytotoxicity, cytotoxicity control, plate reader, single point, cherry-pick; AID 743190, 2013; hit rate 3% among 550; shares compounds with esBAF inh; activity change, negative = inhibition, % at 25 µM, hits read low; in the data active means activity change below about -38%, passing the limit was not always enough
Large screens that a line does not name were inactive (follow-up assays come after a bar, where they were run).

O=C(C[C@H]1CC[C@@H]2[C@H](COC[C@H](O)CN2C(=O)Nc2cc(Cl)cc(Cl)c2)O1)NCC1CCCCC1	none (no result: UUG fidelity)
Cc1ccc(OC(=O)N(C)C[C@@H]2OCc3ccccc3-c3ccccc3C(=O)N([C@H](C)CO)C[C@H]2C)cc1	none (no result: C2C12 statin)
Cc1ccnc(NC(=O)c2ccc3c(c2)C(=O)N(CC(C)C)C3=O)c1	esBAF inh 74 (no result: PGC1a acetyl inh) | esBAF Ring1 qPCR inactive | Fgf4 repress inactive | Bmi1 derepress inactive | A549 tox SP inactive | HepG2 cytotox SP inactive | HEK293 tox SP inactive
CCCN1C(=O)c2ccc(C(=O)Nc3cc(C)ccc3O)cc2C1=O	none (no result: E-selectin induc)
Cc1ccc(O)c(NC(=O)c2ccc3c(c2)C(=O)N(CC(C)C)C3=O)c1	PGC1a acetyl inh inconclusive, esBAF inh 57 | esBAF Ring1 qPCR inactive | Fgf4 repress inactive | Bmi1 derepress inactive | A549 tox SP inactive | HepG2 cytotox SP inactive | HEK293 tox SP inactive
COc1ccc2c(c1)CC/C(=C/c1ccccn1)C2=O	esBAF inh 68 (no result: PGC1a acetyl inh) | esBAF Ring1 qPCR inactive | Fgf4 repress 0.37 | Bmi1 derepress inactive | A549 tox SP inactive | HepG2 cytotox SP inactive | HEK293 tox SP inactive
c1ccc(-c2nc3c(ccc4ccccc43)[nH]2)nc1	esBAF inh 100 (no result: UUG fidelity, E-selectin induc, PglD inh) | esBAF Ring1 qPCR inactive | Fgf4 repress inactive | Bmi1 derepress inactive | A549 tox SP inactive | HepG2 cytotox SP inactive | HEK293 tox SP inactive
CC(C)CC#Cc1ccc([C@@H]2[C@@H](CO)N3C(=O)CN(C(=O)Cc4cccnc4)C[C@@H]23)cc1	none (no result: UUG fidelity, esBAF inh, C2C12 statin, PglD inh)
O=C(NCCc1ccc(F)cc1)c1ccc2c(=O)n3c(nc2c1)CCC3	esBAF inh 54 (no result: PGC1a acetyl inh, UUG fidelity, PglD inh) | esBAF Ring1 qPCR inactive | Fgf4 repress inactive | Bmi1 derepress inactive | A549 tox SP inactive | HepG2 cytotox SP inactive | HEK293 tox SP inactive
O=C(Nc1ccc2c(c1)C(=O)c1ccccc1-2)c1ccccc1	esBAF inh 94 | esBAF Ring1 qPCR inactive | Fgf4 repress inactive | Bmi1 derepress inactive | A549 tox SP inactive | HepG2 cytotox SP inactive | HEK293 tox SP inactive
COc1ccccc1N1C(=O)S/C(=C\c2ccc(C)s2)C1=O	esBAF inh 73 | esBAF Ring1 qPCR inactive | Fgf4 repress inconclusive | Bmi1 derepress inactive | A549 tox SP inactive | HepG2 cytotox SP inactive | HEK293 tox SP inactive
CC(C)Cc1cc(C(=O)Nc2ccc(Br)cc2)no1	esBAF inh 69 (no result: PGC1a acetyl inh, UUG fidelity, PglD inh) | esBAF Ring1 qPCR inactive | Fgf4 repress inactive | Bmi1 derepress inactive | A549 tox SP inactive | HepG2 cytotox SP inactive | HEK293 tox SP inactive
CC(C)Cc1cc(C(=O)Nc2ccc3c(c2)OCO3)no1	none
COc1ccc(NC(=O)Nc2cccc(C)n2)cc1	esBAF inh 66, E-selectin induc inconclusive | esBAF Ring1 qPCR inactive | Fgf4 repress inactive | Bmi1 derepress inactive | A549 tox SP inactive | HepG2 cytotox SP inactive | HEK293 tox SP inactive
CCS(=O)(=O)Nc1ccc2c(c1)C(=O)N(C)[C@H]1CC[C@@H](CC(=O)OC)O[C@H]1CO2	none
CCC(=O)N1CC2(CCN(Cc3cncnc3)CC2)c2c([nH]c3cc(OC)ccc23)[C@@H]1CO	none (no result: UUG fidelity, esBAF inh, C2C12 statin, PglD inh)
COc1ccc(CCn2nnc3ccccc3c2=O)cc1OC	esBAF inh 61 (no result: PGC1a acetyl inh) | esBAF Ring1 qPCR inactive | Fgf4 repress inactive | Bmi1 derepress inactive | A549 tox SP inactive | HepG2 cytotox SP inactive | HEK293 tox SP inactive
c1ccc(Oc2cc(-c3ccccc3)ncn2)cc1	esBAF inh 77 (no result: E-selectin induc) | esBAF Ring1 qPCR inactive | Fgf4 repress inconclusive | Bmi1 derepress inactive | A549 tox SP inactive | HepG2 cytotox SP inactive | HEK293 tox SP inactive
Cc1ccc(NC(=O)NC2CCCCC2)c(C)c1	none (no result: esBAF inh, E-selectin induc, C2C12 statin)
Cc1ccc(NC(=O)NC2CCCCCCC2)cc1C	esBAF inh 61 (no result: PGC1a acetyl inh) | esBAF Ring1 qPCR inactive | Fgf4 repress inactive | Bmi1 derepress inactive | A549 tox SP inactive | HepG2 cytotox SP inactive | HEK293 tox SP inactive
CC(NC(=O)c1cc(COc2ccc(-n3cncn3)cc2)on1)c1ccc(F)cc1 (stereo not drawn)	esBAF inh 59 | esBAF Ring1 qPCR inactive | Fgf4 repress inconclusive | Bmi1 derepress inactive | A549 tox SP inactive | HepG2 cytotox SP inactive | HEK293 tox SP inactive
O=C(c1cc(COc2ccc(-n3cncn3)cc2)on1)N1CCCC1	none (no result: PGC1a acetyl inh)
CCCC(=O)Nc1ccc2c(c1)C(=O)N(C)C[C@H](OC)[C@H](C)CN(C(=O)c1cnccn1)[C@@H](C)CO2	none
CC1CC(C)CN(C(=O)CCNS(=O)(=O)c2cccs2)C1 (stereo not drawn)	none (no result: esBAF inh, E-selectin induc, C2C12 statin)
O=C(CCNS(=O)(=O)c1cccs1)N1CCc2ccccc2C1	esBAF inh 68 (no result: E-selectin induc) | esBAF Ring1 qPCR inactive | Fgf4 repress inactive | Bmi1 derepress inactive | A549 tox SP inactive | HepG2 cytotox SP inactive | HEK293 tox SP inactive
C[C@@H](NC(=O)C[C@@H]1CC[C@H](NC(=O)C2CC2)[C@H](CO)O1)c1ccccc1	none
COc1cccc(OCc2cc(C(=O)N(C)Cc3nc4ccccc4[nH]3)no2)c1	esBAF inh 69 (no result: E-selectin induc) | esBAF Ring1 qPCR inactive | Fgf4 repress inconclusive | Bmi1 derepress inactive | A549 tox SP inactive | HepG2 cytotox SP inactive | HEK293 tox SP inactive
CCCNC(=O)C[C@@H]1CC[C@@H]2[C@@H](COc3ccc(NC(=O)c4cccc(Cl)c4)cc3C(=O)N2C)O1	none (no result: UUG fidelity)
Nc1ccc2c(c1Br)Cc1ccccc1-2	none (no result: UUG fidelity, E-selectin induc, PglD inh)
CC(=O)Nc1ccc2c(c1Br)Cc1ccccc1-2	esBAF inh 69 (no result: UUG fidelity, E-selectin induc, PglD inh) | esBAF Ring1 qPCR inactive | Fgf4 repress inactive | Bmi1 derepress inactive | A549 tox SP inactive | HepG2 cytotox SP inactive | HEK293 tox SP inactive
